Literature values, collected in patent publication US20160165928A1, “METHODS OF REDUCING METHANE EMISSION DERIVED FROM RUMINAL FERMENTATION WHILE SIMULTANEOUSLY REDUCING RISK OF NITRATE INTOXICATION” (Grasp Indústria e Comércio Ltda., priority 2011, published 2016).

Test system: methane produced by rumen fermentation
Details: uncoated/unprotected salts

## ammonium nitrate
  methane emission in ruminants: reduced methane emission

This is a selection: effects in other tests are not listed, and their absence says nothing.
